Measured affinities in a library of Ab-14 light chain variants

Source: Engelhart et al. 2022 (doi:10.1038/s41597-022-01779-4), MIT Lincoln Laboratory and A-Alpha Bio; data file from the FLAb repository.

The target is the same throughout: PDVDLGDISGINAS, from the HR2 region of SARS-CoV-2 spike.

Parent scFv Ab-14: VH joined to VL by the linker GGGGSGGGGSGGGGS. Changes lie in the light chain CDRs alone.
VH: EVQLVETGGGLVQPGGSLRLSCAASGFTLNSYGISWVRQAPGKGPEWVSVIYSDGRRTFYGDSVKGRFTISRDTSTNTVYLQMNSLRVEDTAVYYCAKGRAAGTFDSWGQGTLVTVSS
VL: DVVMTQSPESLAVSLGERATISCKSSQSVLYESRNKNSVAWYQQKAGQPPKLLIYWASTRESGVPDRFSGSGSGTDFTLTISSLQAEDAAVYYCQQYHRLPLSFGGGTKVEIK

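Phage display of a naive human antibody library on the peptide gave the parent. The library (AAYL50) carries one to three amino acid substitutions per variant, with no insertions or deletions. The assay is AlphaSeq: two haploid yeast populations carry antibody and antigen on their surface. After mating in shaken culture at 30 °C for 16 h, diploids were selected and their barcode pairs sequenced. The ratio of observed to expected reads was calibrated, replicate by replicate, on BCL2-family standards whose Kd was known from biolayer interferometry. Each pool was mated in three replicate cultures.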

Substitutions are numbered in sequence along the VL above, starting at 1 (not Kabat).
Affinities are written as log10 Kd with Kd in nM; a lower number is a better binder.
"ND" marks a missing value. The strain was present, yet no cells mated with the target were sequenced in that replicate, which points to weak or no binding.

changes,log10 Kd (nM) by replicate
V29S+L30M+Y31D,2.06 / 1.99 / 2.19
L30T+S38I+T59S,ND / ND / ND
K36T+P101C,2.49 / 1.80 / 1.79
Y31E+N37S+S58W,1.36 / 1.38 / 1.35
Y31M+K36A+S62L,0.53 / 0.71 / 0.62
E32P+R99C+P101Y,0.67 / 0.96 / 0.79
Q27Y+T59N+R60L,ND / ND / ND
V29Y+S33K+S58E,0.92 / 0.86 / 0.83
K36Y+A57R,2.64 / 3.64 / ND
K24S+S58E+S62T,0.65 / 1.62 / 1.15
S58N+R60H+E61I,3.39 / 3.44 / 3.41
K24N+Y31M+P101M,1.60 / 1.87 / 1.86
L30N+E61K+S103F,ND / ND / ND
R34M+Q95A+H98P,4.23 / 4.53 / ND
A57G+T59H+Q95H,2.39 / 2.49 / 2.72
S28M+E32N+Q96V,ND / 3.62 / ND
S33D+S38A+Y97V,ND / ND / ND
E32A+S58C+P101V,2.81 / 3.15 / 3.20
A57S+Y97M,ND / 3.44 / ND
S28Q+E61D+Q95C,2.10 / 2.15 / 2.15
S33L+A40Y,ND / ND / ND
S33C+R34I+R60K,ND / 4.88 / ND
V29S+S33H+N35C,ND / ND / ND
Q27G+S28E+L100S,1.29 / 1.50 / 1.41
K24M+R34H+V39N,ND / 3.48 / ND
S26A+L30H+K36A,1.21 / 1.27 / 1.31
Q95P+H98L,ND / ND / ND
S26D+V29M+T59V,0.05 / 0.41 / 0.21
R34M+S58C+L102Y,ND / ND / 4.24
L30F+S38I+L100G,ND / ND / ND
A57S+R60F+S103D,ND / ND / ND
K24W+S28D+R60S,ND / 3.35 / 5.15
A57Q+T59H+R60Y,ND / ND / ND
W56T+S62D+R99Q,0.94 / 1.09 / 1.19

A selection of 5 entries from above:

| changes | log10 Kd (nM) by replicate |
|---|---|
| S28M+E32N+Q96V | ND / 3.62 / ND |
| A57Q+T59H+R60Y | ND / ND / ND |
| K24W+S28D+R60S | ND / 3.35 / 5.15 |
| Q27Y+T59N+R60L | ND / ND / ND |
| S58N+R60H+E61I | 3.39 / 3.44 / 3.41 |

Parent in this assay: reference entry 0.65, copy in this library 1.68.
Nonspecific signal, from three strains lacking the peptide, appeared in 18% of pairings of library AAYL50, centred on 4.19 (5% of these signals below 2.99); values are not corrected for it.